Experiments:
Set-up in all cases: species or system rodent
Conditions in all cases: saturation binding, membrane-expressed receptor, n = 3–4
[1] = target: T1, α1A-AR (Rattus norvegicus, UniProt P43140); test: [3H]Prazosin competition/saturation binding on COS-1 membranes expressing α1A-AR
T1 construct: expressed in transfected cells; host or cells: COS-1
T1 sequence (P43140 1-466): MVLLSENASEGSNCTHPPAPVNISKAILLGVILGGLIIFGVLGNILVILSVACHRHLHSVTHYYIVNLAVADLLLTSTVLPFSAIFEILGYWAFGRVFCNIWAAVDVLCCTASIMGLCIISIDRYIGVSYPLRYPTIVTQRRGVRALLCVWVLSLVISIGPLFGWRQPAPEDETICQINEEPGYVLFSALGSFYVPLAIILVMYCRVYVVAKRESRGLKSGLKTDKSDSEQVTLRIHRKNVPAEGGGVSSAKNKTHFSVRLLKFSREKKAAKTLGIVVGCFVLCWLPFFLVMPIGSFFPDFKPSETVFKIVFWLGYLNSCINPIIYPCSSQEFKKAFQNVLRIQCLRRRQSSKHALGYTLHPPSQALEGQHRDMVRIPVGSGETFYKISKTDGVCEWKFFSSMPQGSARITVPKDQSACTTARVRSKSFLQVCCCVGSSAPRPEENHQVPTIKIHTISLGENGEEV
Method: (§1) COS-1 cells (American Type Culture Collection, Manassas, VA) were cultured in Dulbecco's modified Eagle's medium (DMEM) supplemented with 10% (v/v) heat inactivated fetal bovine serum (FBS), 100 µg ml^−1 penicillin and 100 µg ml^−1 streptomycin. Cells were maintained and passaged upon reaching confluence by standard cell culture techniques. pMT4 plasmids containing rodent α1-AR (a kind gift from Prof R Graham, Victor Chang Cardiac Research Institute, Australia) were used to transfect cells. Transient expression in COS-1 cells was accomplished using two techniques; the diethylaminoethane-dextran (DEAE-dextran) and Lipofectamine 2000 (Invitrogen, Carlsbad, CA, USA) methods. Briefly, the DEAE-dextran method involved washing of cells with phosphate buffered saline (PBS), followed by the addition of the DNA mixture (12–25 µg/4×10^6 cells) in DEAE-dextran (10 mg ml^−1) to cells at 60–80% confluency. Following a 3 h incubation, a PBS wash with 10% DMSO was used to shock the cells. Cells were harvested 72 h post transfection. For the Lipofectamine 2000 method, cells were incubated for 12 h with Opti-MEM (GIBCO BRL, Gaithersburg, MD, USA) containing Lipofectamine 2000.
(§2) Membranes were prepared as described previously. Briefly, COS-1 cells were transiently transfected using the DEAE-dextran method. […] Protein concentration was determined using Bradford reagent (Sigma, St Louis, MO, USA). […]

Sequences of proteins named here, by UniProt entry; tags and fusion partners are left off.
UniProt P18841, whole entry: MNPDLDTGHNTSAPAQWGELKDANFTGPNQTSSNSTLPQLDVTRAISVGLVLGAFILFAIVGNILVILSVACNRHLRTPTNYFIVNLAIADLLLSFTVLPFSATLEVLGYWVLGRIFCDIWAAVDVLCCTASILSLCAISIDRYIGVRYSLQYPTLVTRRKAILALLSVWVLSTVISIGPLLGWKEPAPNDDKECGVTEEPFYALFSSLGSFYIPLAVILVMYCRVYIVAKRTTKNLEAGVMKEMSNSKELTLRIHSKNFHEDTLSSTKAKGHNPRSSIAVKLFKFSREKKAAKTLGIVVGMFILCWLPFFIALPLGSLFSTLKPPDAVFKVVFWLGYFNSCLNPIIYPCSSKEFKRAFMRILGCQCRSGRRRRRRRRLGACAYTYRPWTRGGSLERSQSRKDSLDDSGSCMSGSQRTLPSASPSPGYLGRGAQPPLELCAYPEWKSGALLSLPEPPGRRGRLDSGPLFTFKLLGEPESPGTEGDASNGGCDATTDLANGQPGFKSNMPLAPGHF
UniProt P23944, whole entry: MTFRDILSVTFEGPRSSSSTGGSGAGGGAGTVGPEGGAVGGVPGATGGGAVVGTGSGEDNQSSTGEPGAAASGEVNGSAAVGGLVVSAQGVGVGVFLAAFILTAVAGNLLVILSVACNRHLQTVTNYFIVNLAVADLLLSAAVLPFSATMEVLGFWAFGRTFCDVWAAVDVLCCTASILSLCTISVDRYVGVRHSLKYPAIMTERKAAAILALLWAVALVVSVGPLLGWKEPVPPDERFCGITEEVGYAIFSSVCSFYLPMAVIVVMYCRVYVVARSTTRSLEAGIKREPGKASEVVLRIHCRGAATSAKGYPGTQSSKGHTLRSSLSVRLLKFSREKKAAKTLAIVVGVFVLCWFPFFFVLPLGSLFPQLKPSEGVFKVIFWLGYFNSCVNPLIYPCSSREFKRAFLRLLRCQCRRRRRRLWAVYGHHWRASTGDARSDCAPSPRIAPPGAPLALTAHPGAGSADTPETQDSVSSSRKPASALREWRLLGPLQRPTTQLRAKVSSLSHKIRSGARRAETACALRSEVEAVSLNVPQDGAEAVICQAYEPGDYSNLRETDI

[2] = target: T2, α1B-AR (Mesocricetus auratus, UniProt P18841); test: [3H]Prazosin competition/saturation binding on COS-1 membranes expressing α1B-AR
T2 construct: expressed in transfected cells; host or cells: COS-1
Method: as §1, §2

[3] = target: T3, α1D-AR (Rattus norvegicus, UniProt P23944); test: [3H]Prazosin competition/saturation binding on COS-1 membranes expressing α1D-AR
T3 construct: expressed in transfected cells; host or cells: COS-1
Method: as §1, §2

Substance: [^3H]Prazosin [reference compound]
- Kd [1]: 0.275 ± 0.059 nM
- Kd [2]: 0.2 ± 0.046 nM
- Kd [3]: 0.153 ± 0.033 nM

From publication PMC3091868, “A Novel Structural Framework for α1A/D-Adrenoceptor Selective Antagonists Identified Using Subtype Selective Pharmacophores” (PLoS ONE, 2011)
